The numbers were not newly measured in US20040142847A1, “Detergent tablets with polyurethane coating” (priority 2002, published 2004), which cites them from elsewhere.

The conditions of this data set: 25° C.

Read-outs that look alike come from different tables or passages of the source.

Regarding Magnesium perchlorate hydrate, the solubility in water is, setting by setting: (listing of preferred solubilizers) 500 mg/mL; (listing of suitable solubilizers) 500 mg/mL.
